Amino acid sequences for entries named in this document (tags omitted).
UniProt P07195, whole entry: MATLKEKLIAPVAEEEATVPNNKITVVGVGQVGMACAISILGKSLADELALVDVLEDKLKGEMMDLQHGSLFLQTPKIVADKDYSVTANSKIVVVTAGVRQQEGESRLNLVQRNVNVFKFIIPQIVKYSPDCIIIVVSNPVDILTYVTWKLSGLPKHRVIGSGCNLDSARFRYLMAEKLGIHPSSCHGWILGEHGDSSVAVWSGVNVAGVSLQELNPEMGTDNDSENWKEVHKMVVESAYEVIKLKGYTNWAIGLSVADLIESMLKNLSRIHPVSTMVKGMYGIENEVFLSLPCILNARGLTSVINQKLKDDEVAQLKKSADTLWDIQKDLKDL

In article PMC7669867, “Synthesis and initial screening of lactate dehydrogenase inhibitor activity of 1,3-benzodioxole derivatives” (Scientific Reports, 2020):

Target: T1, purified recombinant human LDHB protein (Homo sapiens, UniProt P07195)
T1 construct: purchased Abcam
Assay: In vitro LDHB activity assay (NAD+ converted to NADH)
Assay type: biochemical
Conditions: standard compounds

## GNE140 [reference compound]
  IC50: 0.151 µM
